Test results reported in patent publication US20210290732A1, “GLP-1R and GCGR Agonists, Formulations, and Methods of Use” (Spitfire Pharma LLC, priority 2020, published 2021).
Where two headings read alike, the source gives them in different places.

Assay: 6-week repeat-dose toxicity and toxicokinetics in cynomolgus monkeys (once weekly SC)
Assay type: in vivo, cynomolgus monkey (Macaca fascicularis)
Settings: cynomolgus monkey, plasma, subcutaneous, mean, monkey plasma
Method: The study was conducted by Covance.
Male and female cynomolgus monkeys (28 animals/sex; Macaca fascicularis) of Asian origin were received from Envigo Global Services Inc. (previously Covance Research Products) in Alice, Tex. Animals were acclimated to the test facility for at least 30 days prior to initiation.
Animals were dosed via subcutaneous injection into the dorsal region on Days 1, 8, 15, 22, 29, and 36 of the dosing phase at a volume of 2.0 mL/kg. The vehicle control article was F58 Formulation Buffer, which consisted of 0.050% (w/w) polysorbate 20, 0.348% (w/w) arginine, 4.260% (w/w) mannitol in deionized water (pH 7.7±0.1).
Assessment of toxicity was based on mortality, clinical observations, body weights, qualitative food consumption, ophthalmic observations, electrocardiographic (ECG) measurements, neurological examinations, qualitative respiration rates, and clinical and anatomic pathology. Blood samples were collected for toxicokinetic evaluations.
The dose sites were in the dorsal scapular region of each animal. Doses were rotated between the sites. The dose sites were as follows: Dose Site A: Upper left scapular region, Dose Site B: Upper right scapular region, Dose Site C: Lower left scapular region, Dose Site D: Lower right scapular region The following animals were not dosed due to body weight loss, body condition score, and veterinary recommendation on the days listed in the following table.
Body weights were recorded for animals four times during the predose phase, on Day −1 of the dosing phase (day prior to dose initiation), and weekly thereafter (based on Day −1) to Day 14 of the dosing phase. Starting on Day 14 of the dosing phase, body weights were collected twice weekly (based on Day 14) through to the end of the dosing phase. Body weights were collected on Days 1, 8, 15, 22, and 28 of the recovery phase. Data presented in FIG. 13 and FIG. 14 represent body weight change as a % of Day-1 in males and females respectively.

[1] = female, 0.06 mg/kg, Day 36, Group 3, 0.06 mg/kg, F
[2] = female, […], Day 1, Group 4, […], F
[3] = female, […], Day 1, Group 5, […], F
[4] = female, […], Day 36, Group 4, […], F
[5] = female, […], Day 36, Group 5, […], F
[6] = female, cynomolgus, 0.06 mg/kg, Day 1, Group 3, 0.06 mg/kg, F
[7] = male, 0.03 mg/kg, Day 1, Group 2, 0.03 mg/kg, M
[8] = male, 0.03 mg/kg, Day 36, Group 2, 0.03 mg/kg, M
[9] = male, 0.06 mg/kg, Day 36, Group 3, 0.06 mg/kg, M
[10] = male, […], Day 1, Group 4, […], M
[11] = male, […], Day 1, Group 5, […], M
[12] = male, […], Day 36, Group 4, […], M
[13] = male, […], Day 36, Group 5, […], M
[14] = male, cynomolgus, 0.06 mg/kg, Day 1, Group 3, 0.06 mg/kg, M

CC[C@H](C)[C@H](NC(=O)[C@H](Cc1ccccc1)NC(=O)[C@H](CCC(=O)O)NC(=O)[C@@H]1CCCCNC(=O)CC[C@H](NC(=O)[C@H](CC(=O)O)NC(=O)[C@H](CC(C)C)NC(=O)[C@H](Cc2ccc(O)cc2)NC(=O)[C@H](CCCCN)NC(=O)[C@H](CO)NC(=O)[C@H](Cc2ccc(O)cc2)NC(=O)[C@H](CC(=O)O)NC(=O)[C@H](CO)NC(=O)[C@@H](NC(=O)[C@H](Cc2ccccc2)NC(=O)[C@@H](NC(=O)CNC(=O)[C@H](CCC(N)=O)NC(=O)C(C)(C)NC(=O)[C@@H](N)Cc2c[nH]cn2)[C@@H](C)O)[C@@H](C)O)C(=O)N[C@@H](CCCCNC(=O)[C@H]2O[C@@H](OCCCCCCCCCCCCCCCCCC(=O)O)[C@H](O)[C@@H](O)[C@@H]2O)C(=O)N[C@@H](C)C(=O)N[C@@H](C)C(=O)N1)C(=O)N[C@@H](CCC(N)=O)C(=O)N[C@@H](Cc1c[nH]c2ccccc12)C(=O)N[C@@H](CC(C)C)C(=O)N[C@@H](CC(C)C)C(=O)N[C@@H](CCC(N)=O)C(=O)N[C@H](C(N)=O)[C@@H](C)O [SEQ ID NO: 1]
half-life (female, 0.03 mg/kg, Day 36, Group 2, 0.03 mg/kg, F): 60.4 h | AUC(0-t) (female, 0.03 mg/kg, Day 36, Group 2, 0.03 mg/kg, F, read-out: AUC0-312): 7210 ng·h/mL | AUC(0-t) (female, 0.03 mg/kg, Day 36, Group 2, 0.03 mg/kg, F, read-out: AUC0-t): 7110 ng·h/mL | AUC(0-t) (female, 0.06 mg/kg, AUC0-168, Day 1, Group 3, 0.06 mg/kg, F): 11600 ng·h/mL | AUC(0-t) (female, 0.06 mg/kg, AUC0-168, Day 36, Group 3, 0.06 mg/kg, F): 14200 ng·h/mL | half-life (female, 0.06 mg/kg, Day 1, Group 3, 0.06 mg/kg, F): 55.9 h | Cmax [1]: 143 ng/mL | Tmax [1]: 48 h | half-life [1]: 62.2 h | AUC(0-t) (female, 0.06 mg/kg, Day 36, Group 3, 0.06 mg/kg, F, read-out: AUC0-312): 16100 ng·h/mL | AUC(0-t) (female, 0.06 mg/kg, Day 36, Group 3, 0.06 mg/kg, F, read-out: AUC0-t): 16100 ng·h/mL | Tmax [2]: 48 h | half-life [2]: 62.3 h | Tmax [3]: 48 h | half-life [3]: 59.4 h | Tmax [4]: 48 h | half-life [4]: 61.2 h | Tmax [5]: 48 h | half-life [5]: 63.2 h | Cmax [6]: 107 ng/mL | Tmax [6]: 48 h | AUC(0-t) (female, cynomolgus, 0.06 mg/kg, Day 1, Group 3, 0.06 mg/kg, F, read-out: AUC0-t): 11600 ng·h/mL | AUC(0-t) (male, 0.03 mg/kg, AUC0-168, Day 1, Group 2, 0.03 mg/kg, M): 6070 ng·h/mL | AUC(0-t) (male, 0.03 mg/kg, AUC0-168, Day 36, Group 2, 0.03 mg/kg, M): 6520 ng·h/mL | Cmax [7]: 59.9 ng/mL | Tmax [7]: 48 h | half-life [7]: 56.9 h | AUC(0-t) (male, 0.03 mg/kg, Day 1, Group 2, 0.03 mg/kg, M, read-out: AUC0-t): 6070 ng·h/mL | Cmax [8]: 64.1 ng/mL | Tmax [8]: 48 h | half-life [8]: 50.9 h | AUC(0-t) (male, 0.03 mg/kg, Day 36, Group 2, 0.03 mg/kg, M, read-out: AUC0-312): 8080 ng·h/mL | AUC(0-t) (male, 0.03 mg/kg, Day 36, Group 2, 0.03 mg/kg, M, read-out: AUC0-t): 7890 ng·h/mL | AUC(0-t) (male, 0.06 mg/kg, AUC0-168, Day 36, Group 3, 0.06 mg/kg, M): 12600 ng·h/mL | Cmax [9]: 137 ng/mL | Tmax [9]: 24 h | half-life [9]: 58.4 h | AUC(0-t) (male, 0.06 mg/kg, Day 36, Group 3, 0.06 mg/kg, M, read-out: AUC0-312): 14700 ng·h/mL | AUC(0-t) (male, 0.06 mg/kg, Day 36, Group 3, 0.06 mg/kg, M, read-out: AUC0-t): 14500 ng·h/mL | Tmax [10]: 48 h | half-life [10]: 60.4 h | Tmax [11]: 24 h | half-life [11]: 69 h | Tmax [12]: 24 h | half-life [12]: 63.4 h | Tmax [13]: 48 h | half-life [13]: 60.7 h | AUC(0-t) (male, cynomolgus, 0.06 mg/kg, AUC0-168, Day 1, Group 3, 0.06 mg/kg, M): 8990 ng·h/mL | Cmax [14]: 91.9 ng/mL | Tmax [14]: 48 h | half-life [14]: 51 h | AUC(0-t) (male, cynomolgus, 0.06 mg/kg, Day 1, Group 3, 0.06 mg/kg, M, read-out: AUC0-t): 8990 ng·h/mL
